In the series the test system is wild-type AB-line zebrafish. To be noted: 3 dpf to 5 dpf, 35° C.; survival rate>90% and teratogenicity<20%. The protocol:
The zebrafish model is a wild-type AB-line zebrafish from College of Biotechnology and Pharmaceutical Engineering, Nanjing Tech University, and is carried out by a natural mating reproduction method, with 30 zebrafish of 2 dpf in each experimental group. The zebrafish is fed in fish culture water at 28° C. (water quality:200 mg of instant sea salt and CaCO3 are added into 1 L of reverse osmosis water with a conductivity of 480 uS/cm to 510 uS/cm, a pH value of 6.9 to 7.2, and a hardness of 53.7 mg/L to 71.6 mg/L), and the feeding management meets the requirements of international AAALAC certification.
240 3 dpf wild-type AB-line zebrafish were randomly selected in an 8-well plate, with 30 zebrafish in each well, and 3 mL of fish culture water in each well, the cordycepin was diluted according to a maximum lethal dose, dissolved in DMSO, and added into each well according to a concentration gradient (the maximum lethal dose was diluted by 100 times, in which 8 concentration gradient values were taken for the experiment), and meanwhile, a normal control group, a solvent control group G (5% glucose) and a solvent control group D (DMSO) were set. […]

Consider “isopropyl((((3-azide-4-hydroxy-5-(6-(isoniazid)-9H-purin-9-yl)tetrahydrofuran-2-yl)methoxy)methyl)(phenoxy)phosphoryl)alanine ester [Compound 28]”, for which the “Maximum tolerance dose (MTD) in zebrafish model” value was 5 µM.
